Measured values published in patent publication US7745390B2, “Antimicrobial peptides” (priority 2005, dated 2010).

How the values were obtained:
Settings in all cases: pH 7.2
Salmonella = type: cell-based, S. typhimurium
Description: (§1) The experiments described above characterizing the activity of granulysin peptides G1-G18 relied on counting bacterial colonies on plates. This assay is quite labor intensive and would not allow evaluation of many different compounds on a number of different microbes. Therefore, we optimized an assay in which the entire procedure could be completed in a single microtiter well. Briefly, peptides are diluted in 10 mM phosphate buffer, pH 7.2 supplemented with 0.03% LB (J. Sambrook, D. W. Russell, Molecular Cloning: A Laboratory Manual (Cold Spring Harbor Laboratory Press, New York, ed. 3, 2001) pg. A2.2, Retrieved from http://openwetware.org/wiki/LB) and 25 μl is added to microtiter wells. Bacteria (25 μl) are added (˜5×10^6 colony forming units/ml) in the same buffer. After a 3-hour incubation at 37° C., 150 μl of LB is added and the plates are incubated overnight. The OD at 600 nm is read on an ELISA plate reader. The minimum inhibitory concentration (MIC) is the lowest concentration allowing no bacterial growth. The IC50 is the concentration of peptide that results in 50% growth compared to the medium.
(§2) We now describe additional peptides and their activity. The peptides have been designed, synthesized, and have been tested for lysis of E. coli and S. typhimurium (gram negative bacteria), B. cereus (gram positive bacterium). Results are shown in Table 2 along with the amino acid sequence of the peptide. Changes from the naturally occurring sequence are underlined. In general, the desired result is lysis of bacteria at low concentration (<1 μM).
(§3) In Table 2, Columns 2-7 are the MIC and IC50 (concentration required for 50% inhibition of growth) for each organism (E. coli, Salmonella, and B. cereus). The MIC (minimum inhibitory concentration) was determined as described above, in a multiwell plate assay. […] L-isomer amino acids are designated by capital letters while D-isomer amino acids are designated by lower case letters.

B. cereus = type: cell-based
Description: as §1, §2, §3

E. coli DH5a = type: cell-based
Description: as §1, §2, §3

Compound	IC50 (Salmonella)	Salmonella MIC (Salmonella)	B. cereus MIC (B. cereus)	IC50 (B. cereus)	E. coli DH5a MIC (E. coli DH5a)	IC50 (E. coli DH5a)
CC[C@H](C)[C@H](NC(=O)[C@@H](NC(=O)[C@H](CCCNC(=N)N)NC(=O)[C@H](CO)NC(=O)[C@H](CCC(N)=O)NC(=O)[C@H](Cc1ccc(O)cc1)NC(=O)[C@H](CCCNC(=N)N)NC(=O)[C@H](CCCNC(=N)N)NC(=O)[C@H](CCSC)NC(=O)[C@H](Cc1ccccc1)NC(=O)[C@H](CC(N)=O)NC(=O)[C@H](CCCNC(=N)N)NC(=O)[C@H](CO)NC(=O)[C@@H](NC(=O)[C@H](CC(=O)O)NC(=O)[C@@H](N)CCCNC(=N)N)C(C)C)C(C)C)C(=O)N[C@@H](CCC(N)=O)C(=O)NCC(=O)N[C@@H](CC(C)C)C(=O)N[C@H](C(=O)O)C(C)C [Peptide G12.1]	> 10000 nM	>10 µM	>10 µM	> 10000 nM	>10 µM	7650 nM
CC[C@H](C)[C@H](NC(=O)[C@@H](NC(=O)[C@H](CCCNC(=N)N)NC(=O)[C@H](CO)NC(=O)[C@H](CCC(N)=O)NC(=O)[C@H](Cc1ccc(O)cc1)NC(=O)[C@H](CCCNC(=N)N)NC(=O)[C@H](CCCNC(=N)N)NC(=O)[C@H](CCSC)NC(=O)[C@H](Cc1ccccc1)NC(=O)[C@H](CCCNC(=N)N)NC(=O)[C@H](CCCNC(=N)N)NC(=O)[C@H](CO)NC(=O)[C@@H](NC(=O)[C@H](CC(=O)O)NC(=O)[C@@H](N)CCCNC(=N)N)C(C)C)C(C)C)C(=O)N[C@@H](CCC(N)=O)C(=O)NCC(=O)N[C@@H](CC(C)C)C(=O)N[C@H](C(=O)O)C(C)C [Peptide G12.2]	1730 nM	2.8 µM	5.8 µM	3510 nM	2.8 µM	1750 nM
CC[C@H](C)[C@H](NC(=O)[C@@H](NC(=O)[C@H](CCCNC(=N)N)NC(=O)[C@H](C)NC(=O)[C@H](CCC(N)=O)NC(=O)[C@H](Cc1ccc(O)cc1)NC(=O)[C@H](CCCNC(=N)N)NC(=O)[C@H](CCCNC(=N)N)NC(=O)[C@H](CCSC)NC(=O)[C@H](Cc1ccccc1)NC(=O)[C@H](CCCNC(=N)N)NC(=O)[C@H](CCCNC(=N)N)NC(=O)[C@H](C)NC(=O)[C@@H](NC(=O)[C@H](CC(=O)O)NC(=O)[C@@H](N)CCCNC(=N)N)C(C)C)C(C)C)C(=O)N[C@@H](CCC(N)=O)C(=O)NCC(=O)N[C@@H](CC(C)C)C(=O)N[C@H](C(=O)O)C(C)C [Peptide G12.4]	3510 nM	5.5 µM	5.5 µM	3500 nM	5.7 µM	2850 nM
CC[C@H](C)[C@H](NC(=O)[C@@H](NC(=O)[C@H](CCCNC(=N)N)NC(=O)[C@H](CO)NC(=O)[C@H](CCC(N)=O)NC(=O)[C@H](Cc1ccc(O)cc1)NC(=O)[C@@H](CCCNC(=N)N)NC(=O)[C@@H](CCCNC(=N)N)NC(=O)[C@H](CCSC)NC(=O)[C@H](Cc1ccccc1)NC(=O)[C@H](CCCNC(=N)N)NC(=O)[C@H](CCCNC(=N)N)NC(=O)[C@H](CO)NC(=O)[C@@H](NC(=O)[C@H](CC(=O)O)NC(=O)[C@@H](N)CCCNC(=N)N)C(C)C)C(C)C)C(=O)N[C@@H](CCC(N)=O)C(=O)NCC(=O)N[C@@H](CC(C)C)C(=O)N[C@H](C(=O)O)C(C)C [Peptide G12.5, RDVSRRFMrrYQSRVIQGLV]	> 10000 nM	>10 µM	>10 µM	7700 nM	5.7 µM	3300 nM
CC(C)[C@H](NC(=O)[C@H](CO)NC(=O)[C@H](CCCNC(=N)N)NC(=O)[C@@H](N)CCC(N)=O)C(=O)N[C@@H](CO)C(=O)N[C@@H](CC(N)=O)C(=O)N[C@@H](C)C(=O)N[C@@H](C)C(=O)N[C@H](C(=O)N[C@@H](CCCNC(=N)N)C(=O)N[C@H](C(=O)N[C@@H](CO)C(=O)N[C@@H](CCCNC(=N)N)C(=O)N[C@H](C(=O)NCC(=O)N[C@@H](CCCNC(=N)N)C(=O)N[C@@H](CO)C(=O)N[C@@H](CCCNC(=N)N)C(=O)N[C@@H](Cc1c[nH]c2ccccc12)C(=O)O)[C@@H](C)O)C(C)C)[C@@H](C)O [Peptide G13.1, QRSVSNAATRVSRTGRSRW]	> 10000 nM	>10 µM	>10 µM	> 10000 nM	>10 µM	7450 nM
CC[C@H](C)[C@H](NC(=O)[C@@H](NC(=O)[C@H](CCCNC(=N)N)NC(=O)[C@H](CO)NC(=O)[C@H](CCC(N)=O)NC(=O)[C@H](Cc1ccc(O)cc1)NC(=O)[C@H](CCCNC(=N)N)NC(=O)[C@H](CCCNC(=N)N)NC(=O)[C@H](CCSC)NC(=O)[C@H](Cc1ccccc1)NC(=O)[C@H](CC(N)=O)NC(=O)[C@H](CCCNC(=N)N)NC(=O)[C@H](CO)NC(=O)[C@@H](NC(=O)[C@H](CC(=O)O)NC(=O)[C@H](CCCNC(=N)N)NC(=O)[C@H](Cc1c[nH]c2ccccc12)NC(=O)[C@H](CCCNC(=N)N)NC(=O)[C@H](CO)NC(=O)[C@H](CCCNC(=N)N)NC(=O)CN)C(C)C)C(C)C)C(=O)N[C@@H](CCC(N)=O)C(=O)NCC(=O)N[C@@H](CC(C)C)C(=O)N[C@H](C(=O)O)C(C)C [Peptide G20.1]	420 nM	0.7 µM	0.71 µM	450 nM	0.7 µM	430 nM

Other lines, results leading:

IC50 (Salmonella)	Salmonella MIC (Salmonella)	B. cereus MIC (B. cereus)	IC50 (B. cereus)	E. coli DH5a MIC (E. coli DH5a)	IC50 (E. coli DH5a)	Compound
890 nM	1.4 µM	5.8 µM	3510 nM	2.8 µM	1750 nM	CC[C@H](C)[C@H](NC(=O)[C@@H](NC(=O)[C@H](CCCNC(=N)N)NC(=O)[C@H](CO)NC(=O)[C@H](CCC(N)=O)NC(=O)[C@H](Cc1ccc(O)cc1)NC(=O)[C@H](CCCNC(=N)N)NC(=O)[C@H](CCCNC(=N)N)NC(=O)[C@H](CCSC)NC(=O)[C@H](Cc1ccccc1)NC(=O)[C@H](CC(N)=O)NC(=O)[C@H](CCCNC(=N)N)NC(=O)[C@H](CS)NC(=O)[C@@H](NC(=O)[C@H](CC(=O)O)NC(=O)[C@@H](N)CCCNC(=N)N)C(C)C)C(C)C)C(=O)N[C@@H](CCC(N)=O)C(=O)NCC(=O)N[C@@H](CC(C)C)C(=O)N[C@H](C(=O)O)C(C)C [Peptide G12, reference compound]
> 10000 nM	>10 µM	2.85 µM	1750 nM	2.8 µM	1710 nM	CC(C)[C@H](NC(=O)[C@H](CO)NC(=O)[C@H](CCCNC(=N)N)NC(=O)[C@@H](N)CCC(N)=O)C(=O)N[C@@H](CO)C(=O)N[C@@H](CC(N)=O)C(=O)N[C@@H](C)C(=O)N[C@@H](C)C(=O)N[C@H](C(=O)N[C@@H](CCCNC(=N)N)C(=O)N[C@H](C(=O)N[C@@H](CS)C(=O)N[C@@H](CCCNC(=N)N)C(=O)N[C@H](C(=O)NCC(=O)N[C@@H](CCCNC(=N)N)C(=O)N[C@@H](CO)C(=O)N[C@@H](CCCNC(=N)N)C(=O)N[C@@H](Cc1c[nH]c2ccccc12)C(=O)O)[C@@H](C)O)C(C)C)[C@@H](C)O [Peptide G13, QRSVSNAATRVCRTGRSRW, reference compound]
210 nM	0.35 µM	1 µM	200 nM	0.35 µM	230 nM	CC[C@H](C)[C@H](NC(=O)[C@@H](NC(=O)[C@H](CCCNC(=N)N)NC(=O)[C@H](CO)NC(=O)[C@H](CCC(N)=O)NC(=O)[C@H](Cc1ccc(O)cc1)NC(=O)[C@H](CCCNC(=N)N)NC(=O)[C@H](CCCNC(=N)N)NC(=O)[C@H](CCSC)NC(=O)[C@H](Cc1ccccc1)NC(=O)[C@H](CC(N)=O)NC(=O)[C@H](CCCNC(=N)N)NC(=O)[C@H](CO)NC(=O)[C@@H](NC(=O)[C@H](CC(=O)O)NC(=O)[C@H](CCCNC(=N)N)NC(=O)[C@H](Cc1c[nH]c2ccccc12)NC(=O)[C@H](CCCNC(=N)N)NC(=O)[C@H](CO)NC(=O)[C@H](CCCNC(=N)N)NC(=O)CNC(=O)[C@@H](NC(=O)[C@H](CCCNC(=N)N)NC(=O)[C@H](CO)NC(=O)[C@@H](NC(=O)[C@H](CCCNC(=N)N)NC(=O)[C@@H](NC(=O)[C@H](C)NC(=O)[C@H](C)NC(=O)[C@H](CC(N)=O)NC(=O)[C@H](CO)NC(=O)[C@@H](NC(=O)[C@H](CO)NC(=O)[C@H](CCCNC(=N)N)NC(=O)[C@@H](N)CCC(N)=O)C(C)C)[C@@H](C)O)C(C)C)[C@@H](C)O)C(C)C)C(C)C)C(=O)N[C@@H](CCC(N)=O)C(=O)NCC(=O)N[C@@H](CC(C)C)C(=O)N[C@H](C(=O)O)C(C)C [Peptide G21]
